Reference: patent US8653075B2, “Therapeutic methods employing substituted piperidines which are CCR3 antagonists” (Boehringer Ingelheim International GmbH, priority 2009, dated 2014)

The chains behind the UniProt entries cited, without tags or fusion partners.
UniProt P51677, whole entry: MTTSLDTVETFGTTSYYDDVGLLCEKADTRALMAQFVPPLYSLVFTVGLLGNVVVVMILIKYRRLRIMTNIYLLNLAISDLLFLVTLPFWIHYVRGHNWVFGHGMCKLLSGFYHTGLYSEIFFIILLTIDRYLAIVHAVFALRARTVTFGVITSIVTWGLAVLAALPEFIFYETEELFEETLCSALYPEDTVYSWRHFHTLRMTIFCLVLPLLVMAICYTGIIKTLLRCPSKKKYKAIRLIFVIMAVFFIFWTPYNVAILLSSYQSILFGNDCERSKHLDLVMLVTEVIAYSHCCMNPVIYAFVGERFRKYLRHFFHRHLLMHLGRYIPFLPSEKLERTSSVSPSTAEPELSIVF

Target: human chemokine receptor CCR3 (Homo sapiens, UniProt P51677)
Experiment: CCR3 receptor binding assay (SPA, 125I-eotaxin-1 displacement, hCCR3-C1 K562 cell membranes)
Settings: human Eotaxin-1 at human CCR3-Rezeptor; for CCR3 % inh @ 1 μM: 1 μM test compound; for Ki: read-out: CCR3 Ki, dose range 0.1 to 10000 nM

| CCR3 % inh @ 1 μM [%] | Ki [nM] | Structure (SMILES) |
| --- | --- | --- |
| 99 | 4 | Cc1cc(CN2CCC(N3C(=O)CC[C@@H]3C(=O)Nc3cc(C(=O)N4CCOCC4)cc(-c4nnnn4C)c3)CC2)ccc1Cl |
| 99 | 6 | Cc1cc(C(=O)N(C)C)cc(NC(=O)[C@H]2CCC(=O)N2C2CCN(Cc3ccc(Br)c(C)c3)CC2)n1 |
| 87 | 153 | Cc1cc(CN2C3CCC2CC(N2C(=O)CC[C@@H]2C(=O)Nc2cccc(C(=O)N(C)C)c2)C3)ccc1Cl (stereo partly shown) |
| 81 | 223 | Cc1cc(CN2C3CCC2CC(N2C(=O)CC[C@@H]2C(=O)Nc2ccccc2)C3)ccc1Cl (stereo partly shown) |
| 100 | 5 | CCCc1nc(NC(=O)[C@H]2CCC(=O)N2C2CCN(Cc3ccc(Cl)c(C)c3)CC2)sc1C(=O)N(C)C |
